pIC50: −log10 of the molar value.
Molecular target: human PDE4D catalytic domain (UniProt no. Q08499) (Homo sapiens (Human), UniProt Q08499)
Experiment: PDE4 assay (TR-FRET, FAM-cAMP cleavage)
Settings: read-out: PDE4 IC50 range

Amino acid sequences for entries named in this document (tags omitted). Residues count along the entry.
UniProt Q08499, 380-740 limits assumed: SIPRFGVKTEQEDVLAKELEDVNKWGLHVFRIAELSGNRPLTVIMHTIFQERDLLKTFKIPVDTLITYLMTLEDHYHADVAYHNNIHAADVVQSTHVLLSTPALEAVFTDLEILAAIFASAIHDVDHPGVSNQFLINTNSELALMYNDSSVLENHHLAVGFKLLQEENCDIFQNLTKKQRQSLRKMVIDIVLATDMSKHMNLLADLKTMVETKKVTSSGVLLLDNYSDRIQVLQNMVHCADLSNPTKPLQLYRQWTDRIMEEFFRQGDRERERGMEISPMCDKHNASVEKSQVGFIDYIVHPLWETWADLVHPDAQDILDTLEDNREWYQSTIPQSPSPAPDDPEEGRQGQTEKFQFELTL

In the case of CCc1nn(CCOC(=O)c2ccccc2)c2c1C(=O)NCC1(CCOCC1)C2, the pIC50 was greater than 7.00.

From patent US10906915B2, “Substituted pyrazoloazepin-4-ones and their use as phosphodiesterase inhibitors” (LEO Pharma A/S, priority 2016, dated 2021)
